{"source": "paper PMC10601128", "key": {"[1]": {"tested_on": "RM1 prostate cancer subcutaneous tumors", "test": "RM1 subcutaneous tumor in immunocompetent C57BL/J6 mice", "settings": "CN133 1 mg/kg i.p. twice a week, vs placebo"}, "[2]": {"tested_on": "xenograft prostate cancer model", "settings": "low dose 1 mg/kg compared to high dose 5 mg/kg, nude mice; cited from earlier work"}, "[3]": {"tested_on": "PMN-MDSCs and T cells of RM1 tumor-bearing mice", "test": "Immune profiling (RNA-seq, RT-qPCR, flow cytometry, immunofluorescence) of RM1 subcutaneous C57BL/J6 model"}, "[4]": {"tested_on": "RM1 prostate cancer subcutaneous tumors", "test": "RM1 subcutaneous tumor in immunodeficient BALB/c nude mice", "settings": "CN133 1 mg/kg i.p. twice a week, vs placebo"}, "[5]": {"settings": "vs placebo or single treatment, day 25"}}, "data": [{"smiles": "CN(Cc1ccc(/C=C/C(=O)NO)cc1)CC12CC3CC(CC(C3)C1)C2", "values": [{"measurement": "tumor growth inhibition", "setting": "[1]", "result": 36.5, "unit": "%"}, {"measurement": "tumors volume", "setting": "[2]", "result": "marked reduction in tumors volume"}, {"measurement": "HGF and CCL5 expression in tumors (RNA-seq)", "setting": "[3]; CN133 treatment vs placebo", "result": "HGF and CCL5 downregulation significantly"}, {"measurement": "IL-1ra expression in FACS-isolated prostate cancer cells (RT-qPCR)", "setting": "[3]; CN133 treatment vs placebo", "result": "markedly upregulation"}, {"measurement": "Pro-MDSCs accumulation cytokines in FACS-isolated prostate cancer cells (RT-qPCR)", "setting": "[3]; CN133 treatment vs placebo", "result": "lower levels of the Pro-MDSCs including IL6, CCL5, CCL12, and HGF"}, {"measurement": "Arg-1 and iNOS secretion in PMN-MDSCs (flow cytometry)", "setting": "[3]; spleens, day 25", "result": "reduced immunosuppressive enzymes secretion (Arg-1, iNOS)"}, {"measurement": "granzyme B and perforin secretion in CD8+ T cells (flow cytometry)", "setting": "[3]; spleens, day 25", "result": "markedly increased cytotoxic mediator secretion (granzyme B, perforin)"}, {"measurement": "CD8+ TILs in tumors (fluorescent images)", "setting": "[3]; tumor tissue, day 25", "result": "slightly increased CD8 + TILs"}, {"measurement": "CD4+ and CD8+ T cells in blood and spleen (flow cytometry)", "setting": "[3]; [5]", "result": "mild upregulation of CD4 + and CD8 + T cells"}, {"measurement": "PMN-MDSCs in blood and spleen (flow cytometry)", "setting": "[3]; [5]", "result": "statistically significant decreased in the PMN-MDSCs"}, {"measurement": "tumor growth inhibition", "setting": "[4]", "result": 26.8, "unit": "%"}]}]}
